Source: US6090786A, “Serine proteases, their activity and their synthetic inhibitors” (priority 1994, dated 2000)

Chains of the proteins cited; added tags and fusions are not shown.
UniProt P27487, whole entry: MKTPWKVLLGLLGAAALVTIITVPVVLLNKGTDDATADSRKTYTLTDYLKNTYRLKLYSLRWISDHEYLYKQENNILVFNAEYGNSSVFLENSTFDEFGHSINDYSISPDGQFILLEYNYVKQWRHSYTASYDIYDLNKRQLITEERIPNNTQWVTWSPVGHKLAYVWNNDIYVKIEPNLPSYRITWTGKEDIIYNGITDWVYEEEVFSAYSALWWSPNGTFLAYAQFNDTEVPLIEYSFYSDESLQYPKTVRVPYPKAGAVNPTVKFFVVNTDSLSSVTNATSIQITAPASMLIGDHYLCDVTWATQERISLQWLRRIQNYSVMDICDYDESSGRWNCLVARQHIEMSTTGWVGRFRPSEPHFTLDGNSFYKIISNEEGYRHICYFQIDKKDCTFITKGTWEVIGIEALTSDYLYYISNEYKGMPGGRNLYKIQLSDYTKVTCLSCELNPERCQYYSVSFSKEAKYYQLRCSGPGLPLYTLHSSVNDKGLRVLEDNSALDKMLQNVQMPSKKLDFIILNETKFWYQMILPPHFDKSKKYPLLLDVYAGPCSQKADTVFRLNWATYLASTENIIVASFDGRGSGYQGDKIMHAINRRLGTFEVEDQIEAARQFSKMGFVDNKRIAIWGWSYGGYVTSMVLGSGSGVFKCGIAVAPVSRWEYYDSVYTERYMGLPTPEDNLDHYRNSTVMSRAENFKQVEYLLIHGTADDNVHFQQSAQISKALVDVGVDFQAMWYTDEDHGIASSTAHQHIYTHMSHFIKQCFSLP

Target: T1, DPPIV (Homo sapiens, UniProt P27487)
T1 construct: from tissue; host or cells: prostasomes from human seminal plasma, purified on immobilized adenosine deaminase
Type: biochemical
Conditions: pH 8.3

SMILES | K+ (second order rate constant)
Cl.N[C@@H](Cc1ccccc1)C(=O)N1CCC[C@H]1P(=O)(Oc1ccccc1)Oc1ccccc1 [Phe-Pro^P -(OPh)2, Diphenyl (R)-1-[(S)-phenylalanyl]pyrrolidine-2-phosphonate hydrochloride] | 36
Cl.N[C@@H](Cc1ccc(F)cc1)C(=O)N1CCC[C@H]1P(=O)(Oc1ccccc1)Oc1ccccc1 [pF-Phe-Pro^P -(OPh)2, Diphenyl (R)-1-[(S)-p-fluorophenylalanyl]pyrrolidine-2-phosphonate hydrochloride] | 40
